Values of other authors, collected in patent publication US12100485B2, “Machine learning and molecular simulation based methods for enhancing binding and activity prediction” (The Board of Trustees of the Leland Stanford Junior …, priority 2018, dated 2024).
Only a part of the results on these compounds is given; other tests are left out.

System: μOR
Conditions: known pharmacology, training dataset

Substance: bezitramide
- Action: agonist
